Protein sequences, listed by entry. Tags and fused reporters are not part of them.
UniProt P41145, whole entry: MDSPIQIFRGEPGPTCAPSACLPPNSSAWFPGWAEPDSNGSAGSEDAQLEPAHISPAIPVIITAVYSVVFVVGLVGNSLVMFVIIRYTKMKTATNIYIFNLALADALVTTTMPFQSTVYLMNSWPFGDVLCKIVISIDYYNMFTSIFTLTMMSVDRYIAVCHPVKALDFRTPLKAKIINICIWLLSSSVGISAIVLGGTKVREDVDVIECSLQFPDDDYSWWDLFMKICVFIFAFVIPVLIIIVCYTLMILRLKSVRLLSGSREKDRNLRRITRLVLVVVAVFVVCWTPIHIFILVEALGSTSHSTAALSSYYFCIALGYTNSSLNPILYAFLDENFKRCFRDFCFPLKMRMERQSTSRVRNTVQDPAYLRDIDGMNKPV
UniProt P41143, whole entry: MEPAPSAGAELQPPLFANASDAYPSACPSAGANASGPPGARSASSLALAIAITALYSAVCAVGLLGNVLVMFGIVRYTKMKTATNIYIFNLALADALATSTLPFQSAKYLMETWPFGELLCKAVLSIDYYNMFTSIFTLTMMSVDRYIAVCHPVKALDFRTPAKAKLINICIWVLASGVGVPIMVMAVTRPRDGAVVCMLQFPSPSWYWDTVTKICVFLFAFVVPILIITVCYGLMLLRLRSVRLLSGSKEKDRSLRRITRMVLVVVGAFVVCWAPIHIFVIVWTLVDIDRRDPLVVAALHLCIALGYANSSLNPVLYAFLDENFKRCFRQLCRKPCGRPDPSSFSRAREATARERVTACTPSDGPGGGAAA

According to ChEMBL document CHEMBL1132136, “Ring constrained analogues of the orvinols: the furanomorphides” (1999):

How the values were obtained:
[1] = target: Kappa-type opioid receptor (Homo sapiens) (UniProt P41145); experiment: Activity was evaluated in human kappa opioid receptors transfected with CHO cells by [35S]GTP-gamma-S, assay
[2] = target: Delta-type opioid receptor (Homo sapiens) (UniProt P41143); experiment: Activity was evaluated in human delta opioid receptors transfected with CHO cells by [35S]GTP-gamma-S, assay

SMILES	Stimulation [1] [%]	Stimulation [2] [%]
CO[C@@]12CCC3(C[C@H]1[C@@](C)(O)C(C)(C)C)[C@H]1Cc4ccc(O)c5c4C3(CCN1C)[C@H]2O5	50	79
CN1CC[C@]23c4c5ccc(O)c4O[C@H]2[C@@]24CC[C@@]3(C[C@H]2C(C)(C)C(C)(C)O4)C1C5	59	88
